Sequences of proteins named here, by UniProt entry; tags and fusion partners are left off. Residues count along the entry.
UniProt P08254, 100-272 limits assumed: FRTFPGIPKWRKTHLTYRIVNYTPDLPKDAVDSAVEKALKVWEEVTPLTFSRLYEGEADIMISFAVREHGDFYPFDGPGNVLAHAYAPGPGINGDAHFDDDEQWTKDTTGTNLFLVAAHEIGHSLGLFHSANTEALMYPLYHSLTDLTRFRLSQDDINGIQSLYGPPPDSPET

In US6713477B1, “Hydroxamic acid derivatives” (Sumitomo Pharmaceuticals Company, Limited, priority 2000, dated 2004):

Legend:
[1] = target: MMP-3 (Matrix Metalloproteinase-3, Stromelysin-1) (Homo sapiens, UniProt P08254); experiment: Inhibition assay against MMP-3 (fluorescent MCA-labeled substrate); details: read-out: IC50 MMP3; Table 10; active MMP at 20 nM, 37° C., 1.5 hours
Protocol: C-terminal truncated form of human prostromelysin cDNA (proMMP-3, cDNA sequence in Nature, 348, 699-704 (1990)) was subcloned, expressed in E.coli and purified as described previously (Biochemistry 30, 6476-6483 (1991)). Activation of proMMP-3 was achieved by treatment with 1 mM 4-aminophenylmercuric acetate at 37° C. for 60 min.
Enzymatic assays were performed in accordance with C. G. Knight's method (FEBS Lett., 296(3), 263-266 (1992)). The fluorescent MCA-labeled substrate, (7-methoxycumaline-4-yl)-Pro-Leu-Gly-Leu-L-[N-(2,4-dinitrophenyl)-L-2,3-diaminopropionyl]-Ala-Arg-NH2 (Peptide Institute. Inc.) was used for measuring the kinetics of inhibition for each tested compound.
(§1) The substrate was incubated at 37° C. for 1.5 hours (MMP-1; for 24 hours) with active MMP (at 20 nM, except MMP-13 at 5 nM) and a test compound in assay buffer containing 100 mM Tris-HCl (pH7.5), 10 mM CaCl2, 100 MM NaCl and 0.05% Brij-35. After the mixture was plated at 100 μL/well onto a 96-well microtiter plate and incubated at 37° C., enzymatic activity in the presence of the compound was estimated by measuring the fluorescence intensity (λex 320 nm, λem 405 nm) and IC50 was determined.

[2] = target: MMP-13 (Matrix Metalloproteinase-13, Collagenase-3) (Homo sapiens, UniProt P45452); experiment: Inhibition assay against MMP-13 (fluorescent MCA-labeled substrate); format: biochemical; details: read-out: IC50 MMP13; Table 10; active MMP-13 at 5 nM, 37° C., 1.5 hours
Source text: To subclone C-terminal truncated form of procollagenase-3 (proMMP-13) cDNA (J.Biol.Chem., 269(24), 16766-16773 (1994)), two synthetic oligonucleotide primer (5′-[…]-3′ and 5′-[…]-3′: the former incorporates sequences for a unique NdeI site (underlined) including initial methionine, and the latter has sequences for a stop codon and BamHI site (underlined)) were used with human chondrocyte cDNA library (CLONTECH) in PCR. With these primers and Pfu DNA polymerase (STRATAGENE) in PCR, 767 bp fragment was generated, which encodes 84 amino acid prosequence and 164 amino acids of mature MMP-13. The fragment was digested with NdaI and BamHI, ligated into the NdeI and BamHI sites of pET11a (STRATAGENE), transformed in E.coli BL21 (DE3) and cultured. The crude cell extract was prepared as described in Biochemistry. […]
as §1

IC50 [1]: 0.794 µM | IC50 [2]: 0.048 µM
SMILES: COc1ccc(C2SCC(=O)N2C(CC(C)C)C(=O)NO)cc1 (centres unmarked)
